Data: patent US20260382583A1, “LPA1 ANTAGONISTS FOR TREATING INTERSTITIAL LUNG DISEASE” (published 2026)
Like-named read-outs stand apart in the source and are kept apart here.

Assays:
patients with IPF = settings: cited from earlier work; for Benefit on FVC vs PBO: Phase 3 IPF; for Progression-free survival: patients with IPF
patients with PPF = settings: cited from earlier work
[1] = Example 7: effect of single and multiple ascending doses of Compound B on systolic blood pressure; settings: single ascending dose
Text: The compound sodium (R)-1-(4′-(3-methyl-4-(((1-phenylethoxy)carbonyl)amino)isoxazol-5-yl)-[1,1′-biphenyl]-4-yl)cyclopropane-1-carboxylate (hereafter referred as to “Compound B”) is an LPA1 antagonist having the structure shown below:
and is described in U.S. Patent Application Publication No. 2010/0311799. Single ascending dose of Compound B caused a drop in blood pressure starting ~1.25 hr post dose (FIG. 5).

| Structure (SMILES) | Benefit on FVC vs PBO (patients with IPF; 52 weeks) | Progression-free survival (patients with IPF) | Annual rate of decline in FVC vs placebo (patients with PPF; 52 weeks) | Progression of lung fibrosis vs placebo (patients with PPF; 52 weeks) | Tolerability (patients with PPF) | Effect on blood pressure [1] | Benefit on FVC vs PBO (patients with IPF; 72 weeks) |
| --- | --- | --- | --- | --- | --- | --- | --- |
| COC(=O)c1ccc2c(c1)NC(=O)/C2=C(\Nc1ccc(N(C)C(=O)CN2CCN(C)CC2)cc1)c1ccccc1 | demonstrated benefits on FVC | modest effects on progression-free survival | lower annual rate of decline in forced vital capacity | slower progression of lung fibrosis than those who received placebo | many patients are unable to tolerate nintedanib due to gastrointestinal side effects |  |  |
| Cc1noc(-c2ccc(-c3ccc(C4(C(=O)O)CC4)cc3)cc2)c1NC(=O)O[C@H](C)c1ccccc1 |  |  |  |  |  | drop in blood pressure |  |
| Cc1ccc(=O)n(-c2ccccc2)c1 |  | modest effects on progression-free survival |  |  |  |  | demonstrated benefits on FVC |
